Assay results published in ChEMBL document CHEMBL5108089, “Structure-based discovery of potent inhibitors of Axl: design, synthesis, and biological evaluation” (RSC Med Chem, 2022).

Target: T1, Tyrosine-protein kinase receptor UFO (Homo sapiens, UniProt P30530)
T1 sequence (P30530 whole entry): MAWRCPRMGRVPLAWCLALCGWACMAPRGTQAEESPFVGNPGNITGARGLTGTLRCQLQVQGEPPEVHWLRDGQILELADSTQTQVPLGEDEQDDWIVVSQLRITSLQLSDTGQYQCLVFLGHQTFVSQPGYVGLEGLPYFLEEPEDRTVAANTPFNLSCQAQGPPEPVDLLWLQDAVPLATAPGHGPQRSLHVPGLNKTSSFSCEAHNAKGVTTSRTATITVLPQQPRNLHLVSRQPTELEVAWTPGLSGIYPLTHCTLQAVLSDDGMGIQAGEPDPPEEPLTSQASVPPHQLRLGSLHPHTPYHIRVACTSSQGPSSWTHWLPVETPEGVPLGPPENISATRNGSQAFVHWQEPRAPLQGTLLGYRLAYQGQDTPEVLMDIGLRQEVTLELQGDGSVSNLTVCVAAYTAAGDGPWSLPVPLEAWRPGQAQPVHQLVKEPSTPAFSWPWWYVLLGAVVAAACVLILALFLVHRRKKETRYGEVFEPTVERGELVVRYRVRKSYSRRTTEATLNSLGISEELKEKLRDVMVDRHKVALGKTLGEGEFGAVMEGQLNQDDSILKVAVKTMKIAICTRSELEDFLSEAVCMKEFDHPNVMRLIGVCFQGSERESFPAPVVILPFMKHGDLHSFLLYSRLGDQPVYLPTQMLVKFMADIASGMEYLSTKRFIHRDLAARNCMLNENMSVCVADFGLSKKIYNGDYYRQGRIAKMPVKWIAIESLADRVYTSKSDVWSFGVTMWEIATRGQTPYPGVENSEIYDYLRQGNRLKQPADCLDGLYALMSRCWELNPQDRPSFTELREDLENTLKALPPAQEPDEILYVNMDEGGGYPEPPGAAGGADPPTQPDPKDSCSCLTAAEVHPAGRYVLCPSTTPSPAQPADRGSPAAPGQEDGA
Experiment: Inhibition of human Axl using KKSRGDYMTMQIG as substrate incubated for 40 mins in the presence of [gamma33P]ATP by scintillation counting analysis

SMILES: CN1CCN(Cc2ccc(Nc3ncc(Cl)c(Nc4ccccc4S(=O)(=O)N(C)C)n3)cc2)CC1 [DUBERMATINIB]
- IC50: 15 nM
